Sequences of proteins named here, by UniProt entry; tags and fusion partners are left off.
UniProt Q9H0H5, whole entry: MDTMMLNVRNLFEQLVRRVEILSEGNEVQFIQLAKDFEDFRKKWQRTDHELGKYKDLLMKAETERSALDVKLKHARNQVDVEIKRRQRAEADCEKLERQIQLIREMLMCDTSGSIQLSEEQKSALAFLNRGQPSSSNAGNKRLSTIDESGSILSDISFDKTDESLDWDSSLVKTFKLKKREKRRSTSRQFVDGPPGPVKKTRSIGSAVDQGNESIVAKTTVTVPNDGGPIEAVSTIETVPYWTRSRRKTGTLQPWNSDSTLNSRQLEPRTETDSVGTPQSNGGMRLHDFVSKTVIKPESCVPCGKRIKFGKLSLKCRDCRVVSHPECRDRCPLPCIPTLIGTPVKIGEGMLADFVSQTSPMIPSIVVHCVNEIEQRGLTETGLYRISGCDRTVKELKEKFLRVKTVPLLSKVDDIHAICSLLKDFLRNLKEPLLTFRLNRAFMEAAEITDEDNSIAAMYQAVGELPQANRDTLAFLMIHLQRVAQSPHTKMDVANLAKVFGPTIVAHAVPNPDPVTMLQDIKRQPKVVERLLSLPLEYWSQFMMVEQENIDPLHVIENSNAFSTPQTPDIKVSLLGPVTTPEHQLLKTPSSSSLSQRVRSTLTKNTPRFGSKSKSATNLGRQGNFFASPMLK

The other results are listed elsewhere or left out. Measured potencies and affinities stand elsewhere. Some results for these compounds are left out of this collection, so the calls shown say nothing about other tests. The source made the active and inactive calls.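 The calls were made as follows: active = first-screen hits whose inhibition reached a set limit at any dose in the follow-up dose series; inconclusive = inhibition above the set first-screen limit but never retested; inactive = the rest.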
What follows are compounds tested against Rac GTPase-activating protein 1 (Homo sapiens) (UniProt Q9H0H5) (assay: MgcRacGAP GTPase-activating activity inhibitors, confirmation, biochemical, ADP Hunter fluorescence, primary and confirmatory (AID 624330;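 also: fluorescence reports GDP produced by GAP-driven GTP hydrolysis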)). Conditions: MgcRacGAP-stimulated Rac1 GTP hydrolysis, at 30 µM, hits give high values, GST-tagged Rac1 F28L mutant substrate.
For `CN(C)c1cccc(C(=O)NCC2(N(C)C)CCCCC2)c1`, the inhibition was inactive: 12.7%. In the case of `O=C(OCCN1CCCC1)C(O)(c1ccccc1)c1ccccc1`, the inhibition is reported as inactive: -5.1%. In the case of `COc1ccc(Br)c(C(=O)NCC2(N3CCCCC3)CCCCC2)c1`, the inhibition is reported as inactive: -3.45%. In the case of `C=C(C)C#CC(O)(C(=O)OC1CCN(C)CC1)c1ccccc1` (stereo not drawn), the inhibition is reported as inactive: -3.72%. In the case of `O=C(OC1CN2CCC1CC2)C(CO)(c1ccccc1)c1ccccc1` (stereo not drawn), the inhibition is reported as inactive: 8%. In the case of `O=C(NCC1(N2CCCCC2)CCCCC1)c1cccc(Cl)c1`, the inhibition is reported as inactive: 3.78%. For `COc1cccc(C(=O)NCC2(N3CCCCC3)CCCCC2)c1`, the inhibition was inactive: 0.1%. With `COc1cc(C(=O)NCC2(N(C)C)CCCCC2)c([N+](=O)[O-])cc1OC` the inhibition was inactive: 6.34%. For `CN(C)C1(CNC(=O)c2ccc(Br)cc2)CCCCC1`, the inhibition was inactive: 9.13%. In the case of `CCN1CCCC(OC(=O)C2(O)c3ccccc3C=Cc3ccccc32)C1` (stereo not drawn), the inhibition is reported as inactive: 6.3%. For `Cc1cc(C(=O)NCC2(N3CCCCC3)CCCCC2)ccc1[N+](=O)[O-]`, the inhibition was inactive: 3.27%. With `O=C(NCC1(N2CCCCC2)CCCCC1)c1cccc(Br)c1` the inhibition was inactive: 5.4%. With `COc1ccc(C(=O)NCC2(N(C)C)CCCCC2)cc1` the inhibition was inactive: 6.15%. `C=CCN1CCN(CCOC(=O)C(O)(c2ccccc2)c2ccccc2)CC1` was tested, and the inhibition was inactive: -25.7%. With `O=C(NCC1(N2CCCCC2)CCCCC1)c1cc(F)c(F)cc1Cl` the inhibition was inactive: -0.2%. In the case of `Cc1ccccc1C(=O)NCC1(N2CCCCC2)CCCCC1`, the inhibition is reported as inactive: 14.5%. In the case of `CN(C)C1CCCC1OC(=O)C(O)(c1ccccc1)c1ccccc1` (stereo not drawn), the inhibition is reported as inactive: 3.13%. For `Cc1ccc(C(=O)NCC2(N3CCCCC3)CCCCC2)cc1`, the inhibition was inactive: 5.17%. In the case of `CC(C)N1C(=O)CC2(CCN(CCOC(=O)C(O)(c3ccccc3)c3ccccc3)CC2)C1=O`, the inhibition is reported as inactive: 3.66%. For `CCN(CC)CC(C)C(C)OC(=O)C(O)(c1ccccc1)c1ccccc1` (stereo not drawn), the inhibition was inactive: 2.76%. In the case of `COc1cc(SC)ccc1C(=O)NCC1(N(C)C)CCCCC1`, the inhibition is reported as inactive: 9.03%. For `CN1[C@@H]2CC[C@H]1CC(OC(=O)C(O)(c1ccccc1)c1ccccc1)C2` (stereo partly drawn), the inhibition was inactive: 7.83%. In the case of `O=C(NCC1(N2CCCCC2)CCCCC1)c1cc([N+](=O)[O-])ccc1Cl`, the inhibition is reported as inactive: -8.29%.

From PubChem BioAssay AID624330 (Southern Research Specialized Biocontainment Screening …, 2012)
